Measurements as given in patent publication US6953793B2 (priority 2000, dated 2005).

Amino acid sequences for entries named in this document (tags omitted). Residues count along the entry.
UniProt P25774, 115-331 limits assumed: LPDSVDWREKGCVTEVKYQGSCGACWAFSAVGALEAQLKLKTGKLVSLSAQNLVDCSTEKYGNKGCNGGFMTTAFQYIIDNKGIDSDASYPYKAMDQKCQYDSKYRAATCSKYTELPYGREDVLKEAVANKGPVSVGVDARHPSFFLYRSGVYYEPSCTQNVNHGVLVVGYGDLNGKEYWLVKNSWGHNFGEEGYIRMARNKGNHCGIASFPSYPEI

Molecular target: Recombinant human cathepsin S (CatS) (Homo sapiens, UniProt P25774)
Assay: Cathepsin S Inhibition Assay
Format: biochemical
Settings: Table 3; 100 mM sodium acetate pH 5.0, 1 mM DTT, 100 mM NaCl; 20 μM substrate

CNC(=O)N(c1cccc(Cl)c1)C1CCN(CC(O)Cn2nc(-c3ccc(Cl)c(C)c3)c3c2CCN(C(C)=O)C3)CC1 (stereo not shown)
IC50: 0.87 µM

Only a part of the results on these compounds is given; other tests are left out.
